Source: article PMC8516733 (Biomedicine & pharmacotherapy = Biomedecine & …, 2021)

Amino acid sequences for entries named in this document (tags omitted). A change or cut given only in a name is not applied to a line headed by its entry.
UniProt P34975: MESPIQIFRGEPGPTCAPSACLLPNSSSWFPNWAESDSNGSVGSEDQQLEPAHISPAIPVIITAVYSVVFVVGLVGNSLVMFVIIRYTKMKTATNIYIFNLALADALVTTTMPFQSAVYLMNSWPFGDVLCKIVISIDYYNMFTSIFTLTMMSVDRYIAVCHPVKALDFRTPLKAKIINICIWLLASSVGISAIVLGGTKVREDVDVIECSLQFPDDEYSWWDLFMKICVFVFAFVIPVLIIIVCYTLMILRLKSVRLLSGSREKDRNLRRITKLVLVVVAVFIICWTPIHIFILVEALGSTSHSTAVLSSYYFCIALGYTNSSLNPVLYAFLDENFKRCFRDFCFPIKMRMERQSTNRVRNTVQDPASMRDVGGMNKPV

Target: cloned rat kappa opioid receptors (Rattus norvegicus, UniProt P34975)
Format: cell-based

In the case of “cyclo [D-Pen^2,D-Pen^5]enkephalin [DPDPE]”, the “Effect of the compound alone on FMP fluorescence” value is reported as “neither DPDPE nor DAMGO triggered a decrease in FMP fluorescence intensity”.

For (−)-cyclazocine, the “Efficacy (relative)” value was 0.64 ± 0.04 and the IC50 (read-out: IC50 (nM), potency (95% CI)) was 1.91 nM.

In the case of “[D-Ala^2,NMePhe^4]enkephalin-glyol [DAMGO]”, the “Effect of the compound alone on FMP fluorescence” value is reported as “neither DPDPE nor DAMGO triggered a decrease in FMP fluorescence intensity”.
